According to patent publication US8637528B2, “Use of PDE7 inhibitors for the treatment of movement disorders” (Omeros Corporation, priority 2007, dated 2014):
“And” between values parts separate entries of the source, which are not always exact repeats. Equal entries are not always repeated.

Protein sequences, listed by entry. Tags and fused reporters are not part of them. Lines headed by an entry give the natural chain unless they say otherwise; changes in a name come on top. Residues count along the entry.
UniProt Q13946: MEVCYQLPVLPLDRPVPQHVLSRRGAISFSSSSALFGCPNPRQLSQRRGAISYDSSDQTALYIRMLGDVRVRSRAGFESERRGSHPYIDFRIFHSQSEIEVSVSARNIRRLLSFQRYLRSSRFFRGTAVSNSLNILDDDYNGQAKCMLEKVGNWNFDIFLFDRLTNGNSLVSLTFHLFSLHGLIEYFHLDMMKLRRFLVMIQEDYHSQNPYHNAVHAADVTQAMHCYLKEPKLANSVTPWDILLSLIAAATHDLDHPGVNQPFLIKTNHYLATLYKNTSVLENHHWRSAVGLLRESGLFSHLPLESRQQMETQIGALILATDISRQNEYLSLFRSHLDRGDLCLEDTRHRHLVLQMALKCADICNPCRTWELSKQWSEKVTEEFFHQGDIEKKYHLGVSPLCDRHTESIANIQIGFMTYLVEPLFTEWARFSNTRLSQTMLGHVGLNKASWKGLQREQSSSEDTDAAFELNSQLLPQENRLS
UniProt Q9NP56, 107-450 limits assumed: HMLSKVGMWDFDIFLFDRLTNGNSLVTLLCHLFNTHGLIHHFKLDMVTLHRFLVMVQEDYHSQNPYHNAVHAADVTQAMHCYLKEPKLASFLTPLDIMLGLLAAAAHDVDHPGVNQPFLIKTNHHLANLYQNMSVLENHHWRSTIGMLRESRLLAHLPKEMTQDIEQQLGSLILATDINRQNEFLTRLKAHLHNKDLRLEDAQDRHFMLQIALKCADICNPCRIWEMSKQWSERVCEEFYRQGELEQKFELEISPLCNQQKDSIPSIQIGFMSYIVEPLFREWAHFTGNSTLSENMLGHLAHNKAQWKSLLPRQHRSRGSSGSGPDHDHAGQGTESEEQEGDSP

Columns and labels:
[1] = molecular target: PDE7A (Homo sapiens (Human), UniProt Q13946); assay: PDE7 phosphodiesterase scintillation proximity assay (SPA), PDE7A; assay type: biochemical
From the text: The recombinant human PDE7A enzyme was purchased from BPS Bioscience (Catalog #60070), Genbank Accession No. NM_002603 (amino acid 121-end) with an N-terminal GST tag, MW=66 kDa, expressed in a Baculovirus infected Sf9 cell expression system, with a specific activity of 302 μmol/min/μg. The recombinant human PDE7B enzyme was purchased from BPS Bioscience (Catalog #60071), Genbank Accession No. NM_018945 (amino acid 107-end), with an N-terminal GST tag, MW=66 kDa, expressed in a Baculovirus infected Sf9 cell expression system, with a specific activity of 53 pmol/min/μg. The assay method used was a scintillation proximity assay (SPA) (obtained from GE Healthcare, Product Code TRKQ7100), with [^3H]-cGMP as the substrate (SPA manual, Amersham Biosciences). […] The mixture was shaken, allowed to settle for 3 hours, then the production of [^3H]-5′AMP from the substrate was quantitated by scintillation counting in a Wallac®plate counter. The results in net cpm values were fitted to a four parameter logistic model using Excel Solver®.

[2] = molecular target: PDE7B (Homo sapiens (Human), UniProt Q9NP56); assay: PDE7 phosphodiesterase scintillation proximity assay (SPA), PDE7B; assay type: biochemical
Protocol: The compounds listed in TABLE 1 were tested for inhibitory activity in a PDE7 phosphodiesterase assay performed using recombinant human PDE7A and 7B enzymes expressed in a baculoviral system. The recombinant human PDE7A enzyme was purchased from BPS Bioscience (Catalog #60070), Genbank Accession No. NM_002603 (amino acid 121-end) with an N-terminal GST tag, MW=66 kDa, expressed in a Baculovirus infected Sf9 cell expression system, with a specific activity of 302 μmol/min/μg. The recombinant human PDE7B enzyme was purchased from BPS Bioscience (Catalog #60071), Genbank Accession No. NM_018945 (amino acid 107-end), with an N-terminal GST tag, MW=66 kDa, expressed in a Baculovirus infected Sf9 cell expression system, with a specific activity of 53 pmol/min/μg.
The assay method used was a scintillation proximity assay (SPA) (obtained from GE Healthcare, Product Code TRKQ7100), with [^3H]-cGMP as the substrate (SPA manual, Amersham Biosciences). Purified human PDE7A and PDE7B (obtained from BPS Bioscience, San Diego, Calif.) were diluted and stored in a solution containing 25 mM Tris-Cl (pH 8.0), 100 mM NaCl, 0.05% Tween 20, 50% glycerol, and 3 mM DTT. […]
The mixture was shaken, allowed to settle for 3 hours, then the production of [^3H]-5′AMP from the substrate was quantitated by scintillation counting in a Wallac®plate counter. […]

SMILES	IC50 [1]	IC50 [2] [nM]
COc1cc(N)ccc1-c1nc2c(C)nn(C3CCCCC3)c2c(=O)[nH]1 [OM056]	5.7 nM and 5.67 nM	–
CC(=O)Nc1ccc(-c2nn(C)/c(=N/C3CCCCC3)s2)cc1 [OM956]	140 nM	144
